Reference: patent publication US7504407B2, “Compounds specific to adenosine A1 and A3 receptors and uses thereof” (OSI Pharmaceuticals, Inc., priority 2001, dated 2009)

Sequences of proteins named here, by UniProt entry; tags and fusion partners are left off.
UniProt P0DMS8, whole entry: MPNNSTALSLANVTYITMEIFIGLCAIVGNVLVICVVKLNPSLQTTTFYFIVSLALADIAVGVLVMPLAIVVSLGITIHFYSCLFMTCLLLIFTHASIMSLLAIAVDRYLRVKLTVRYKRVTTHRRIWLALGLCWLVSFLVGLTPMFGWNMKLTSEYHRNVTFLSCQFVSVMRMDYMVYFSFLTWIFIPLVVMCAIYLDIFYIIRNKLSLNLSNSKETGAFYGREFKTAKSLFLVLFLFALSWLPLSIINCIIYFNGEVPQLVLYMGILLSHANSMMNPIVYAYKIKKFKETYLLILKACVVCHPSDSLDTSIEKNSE

Assays:
[1] = biological target: human A3 receptor subtype (Homo sapiens, UniProt P0DMS8); assay: Adenosine 3 receptor competition radioligand binding, [125I]AB-MECA, HEK293 membranes; conditions: @ 10 μM
[2] = biological target: human A2a receptor subtype (Homo sapiens, UniProt P29274); assay: Adenosine 2a receptor subtype competition radioligand binding, [3H]CGS-21680, HEK293 membranes; conditions: @ 10 μM; tested form: ammonium salt (drawn as NH3 with a charg)

Row | % activity A3 [1] | % activity A2a [2] | SMILES
1 | 54%^8 | – | O[C@H]1CC[C@H](Nc2nc(-c3ccncc3)nc3[nH]ccc23)CC1
2 | – | 65% | Cc1[nH]c2nc(-c3ccccc3)nc(NCCNC(=O)C3(N)CC3)c2c1C
